Antibody variant affinities, Ab-14 heavy chain, assay 1

Antigen: PDVDLGDISGINAS, a 14-residue peptide of the SARS-CoV-2 spike HR2 region.

Each scFv is VH, the linker GGGGSGGGGSGGGGS, VL, as in the parent Ab-14, and differs from it in the CDRs of the heavy chain only.
VH: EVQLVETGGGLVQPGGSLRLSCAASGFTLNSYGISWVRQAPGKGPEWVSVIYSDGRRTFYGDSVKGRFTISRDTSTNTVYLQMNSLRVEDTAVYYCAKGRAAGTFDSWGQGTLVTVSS
VL: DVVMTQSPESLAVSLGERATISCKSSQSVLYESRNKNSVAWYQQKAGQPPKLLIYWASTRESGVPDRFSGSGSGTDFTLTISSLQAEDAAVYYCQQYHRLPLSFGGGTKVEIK

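AAYL49 was designed without a model: most single CDR substitutions and a random sample of double and triple ones. In AlphaSeq, yeast of one mating type display the scFv and yeast of the other type display the target. Pairs that bind mate more often; barcode pairs of the diploids are counted by sequencing. Each replicate has its own calibration line, from reference interactions of the BCL2 family. Each pool was mated in three replicate cultures.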

Variants are written as CDR1, CDR2 and CDR3 of the heavy chain (limits as in the source). Parent: GFTLNSYGIS, VIYSDGRRTFYGDSVK, GRAAGTFDS.
This list gathers variants with a substitution at I51 (VH, numbered from residue 1).
Values are apparent Kd, the geometric mean of the replicates that gave a signal; lower means stronger binding.
An entry "no signal" has no value in the source: the pair was not observed among the diploids in any replicate. This suggests poor binding but is not conclusive.
Parent in this assay: reference entry 4.4 nM, copy in this library 13 µM (one replicate of three).

- GFTLNSYGGS / VMYSDGRRTFSGDSVK / GRAAGTFDS = no signal (0 of 3 replicates; controls 1 of 9)
- GFTLNSYGIS / VNYSDGRRTFYGDSVR / GRAAGTFDS = 13 µM (1 of 3 replicates; controls 3 of 9)
- GFTLNSYGIS / VNYSDGRRTFYGDSVK / GRCAGTFDS = no signal (0 of 3 replicates; controls 3 of 9)
- GFTLRSYGIS / VMYSDGRRTFYGDRVK / GRAAGTFDS = 960 nM (3 of 3 replicates; controls 0 of 9)
- GFTLNSYGIS / VDWSDGRRTFYDDSVK / GRAAGTFDS = no signal (0 of 3 replicates; controls 0 of 9)
- GFTLNSYGIS / VDYSDGRRTFYGDSVK / GRAKGPFDS = 320 nM (1 of 3 replicates; controls 2 of 9)
- GFTLNSYGIS / VAYSDGRRTFYGDSVK / GRAAGTFRA = 95 µM (3 of 3 replicates; controls 3 of 9)
- GFTLNSYGIS / VLISDGRRTFYGDSVK / GRAAGTFDS = no signal (0 of 3 replicates; controls 0 of 9)
- GFTKNSYGIS / VTYSDGRRTLYGDSVK / GRAAGTFDS = 160 µM (1 of 3 replicates; controls 1 of 9)
- GFTLNSYGIS / VGYSDERRTKYGDSVK / GRAAGTFDS = no signal (0 of 3 replicates; controls 0 of 9)
- DFTLNSYGIS / VNYSDGRRTFYGDSVK / GRAAGTFDS = 360 µM (1 of 3 replicates; controls 2 of 9)
- GFTLNSYGIS / VAYSDGRRTFYGDNVK / GHAAGTFDS = no signal (0 of 3 replicates; controls 1 of 9)
- ASTLNSYGIS / VPYSDGRRTFYGDSVK / GRAAGTFDS = 19 µM (2 of 3 replicates; controls 6 of 9)
- GFTLNSYGIS / VWYSDGRLTFYGDSVK / GRAAGTFCS = no signal (0 of 3 replicates; controls 2 of 9)
- GFTLNSYGIM / VHYPDGRRTFYGDSVK / GRAAGTFDS = no signal (0 of 3 replicates; controls 0 of 9)
- GFTLNSYGIS / VCYSDGRRTFYGDSVK / GRAEGTFNS = 57 µM (1 of 3 replicates; controls 1 of 9)
- GFTLNSYGIS / VQYSDGRRTFYGDSVK / GNAAHTFDS = 19 µM (1 of 3 replicates; controls 1 of 9)
- GFTLNSYGIS / VLYSDGRRTFYGDSWK / GRAAGTLDS = no signal (0 of 3 replicates; controls 0 of 9)
- GFTLNSYGIS / VTYSDGRLTFRGDSVK / GRAAGTFDS = 4.4 µM (1 of 3 replicates; controls 1 of 9)
- GFTLNSYGIS / VKYSDGRRTFWGDSVK / GRAAGTFDS = 11 µM (1 of 3 replicates; controls 0 of 9)
- GFTLNSYGIS / VCYSDGMRIFYGDSVK / GRAAGTFDS = no signal (0 of 3 replicates; controls 0 of 9)
- GFTLNSYGIS / VYYSDGIRTFYGDSVK / GRAAGTFDS = 27 µM (2 of 3 replicates; controls 1 of 9)
- YFTLNSYGIS / VFYSDGRRTFYPDSVK / GRAAGTFDS = 33 µM (1 of 3 replicates; controls 0 of 9)
- GFTLNSYGIS / VKYSDLRRTFYGDSVK / GRAAWTFDS = 17 µM (2 of 3 replicates; controls 5 of 9)
- GFTLKSYGIS / VTVSDGRRTFYGDSVK / GRAAGTFDS = no signal (0 of 3 replicates; controls 0 of 9)
- GFTLNSYGIS / VSYSDGRRTFYGDSVK / GRAAGFIDS = no signal (0 of 3 replicates; controls 0 of 9)
- GFTLNSYGIS / VNYSDSRRTFYGDSVK / GRAAGTFDS = no signal (0 of 3 replicates; controls 1 of 9)
- PFTLNSYGIS / VQYSDGRRTFYKDSVK / GRAAGTFDS = 280 nM (1 of 3 replicates; controls 0 of 9)
- GFTLNSYGIS / VLYQDGRRTFYGDYVK / GRAAGTFDS = 43 µM (1 of 3 replicates; controls 0 of 9)
- GFTLNSYGIS / VGYSDGRRWFYGDSVK / GRAAGTFDS = no signal (0 of 3 replicates; controls 0 of 9)
- GFTLLSYGIS / VVYSDGRRTFYGDSVK / GRAAGTEDS = 150 µM (1 of 3 replicates; controls 3 of 9)
- CFTLNSYGIS / VGYSDGWRTFYGDSVK / GRAAGTFDS = no signal (0 of 3 replicates; controls 0 of 9)
- GFTLNSYGIS / VYYSDGRRTFYGDSVK / GRAAGTFDS = no signal (0 of 3 replicates; controls 2 of 9)
- GFTLNSYGIS / VMYSDGRRTFYGDSVK / GRATITFDS = no signal (0 of 3 replicates; controls 1 of 9)
- GFTRNSYGIS / VDYSDGRRTFYHDSVK / GRAAGTFDS = no signal (0 of 3 replicates; controls 2 of 9)
- GFTLNSYGIS / VCYSDGRRFFYGDSVW / GRAAGTFDS = no signal (0 of 3 replicates; controls 0 of 9)
- GFTKNSYGIG / VCYSDGRRTFYGDSVK / GRAAGTFDS = 13 µM (2 of 3 replicates; controls 4 of 9)
- GFTLNSYGIS / VMYSDGRRTVYGDSVK / LRAAGTFDS = no signal (0 of 3 replicates; controls 0 of 9)
- GFTLSSYGIS / YLYSDGRRTFYGDSVK / GRAAGTFDS = no signal (0 of 3 replicates; controls 0 of 9)
- GFTLNSYGIS / VRYSDGRRTKYGDSVK / GRAAGTFDQ = no signal (0 of 3 replicates; controls 0 of 9)
- GFTLNDYGIS / VTYSDGRRTFQGDSVK / GRAAGTFDS = no signal (0 of 3 replicates; controls 2 of 9)
- GFTLNSYGIS / VTYSDGRRTFYGDSVK / GRAAFTFDS = no signal (0 of 3 replicates; controls 0 of 9)
- GFTLNSYGIT / VCYSDGRRTFYGDSVK / GLAAGTFDS = no signal (0 of 3 replicates; controls 2 of 9)
- GFTLNSYQIS / VAYSDGRRDFYGDSVK / GRAAGTFDS = no signal (0 of 3 replicates; controls 0 of 9)
- GFTYNSYGIS / VGYSDGRRYFYGDSVK / GRAAGTFDS = no signal (0 of 3 replicates; controls 0 of 9)

The first 5 variants above that were never detected:

CDR-H1	CDR-H2	CDR-H3	Kd (apparent)	replicates with signal	control signals
GFTLNSYGGS	VMYSDGRRTFSGDSVK	GRAAGTFDS	no signal	0/3	1/9
GFTLNSYGIS	VNYSDGRRTFYGDSVK	GRCAGTFDS	no signal	0/3	3/9
GFTLNSYGIS	VDWSDGRRTFYDDSVK	GRAAGTFDS	no signal	0/3	0/9
GFTLNSYGIS	VLISDGRRTFYGDSVK	GRAAGTFDS	no signal	0/3	0/9
GFTLNSYGIS	VGYSDERRTKYGDSVK	GRAAGTFDS	no signal	0/3	0/9

As a blank, each scFv also met three strains without target: over library AAYL49, 15% of these pairings were detected, typically at 11 µM and seldom below 680 nM. For each scFv, signals with the empty controls are counted beside the result.

Reference: Engelhart et al. 2022, doi:10.1038/s41597-022-01779-4. File: FLAb, binding data.